Tested on: A549 cells
Assay: Effect of pathway inhibitors on Smp24-induced cytotoxicity (MTT and LDH release)
Assay type: cell-based, human
Details: inhibitor pre-incubated 30 min (40 μM Necrostatin-1, 1 μM Cyclosporine A), then 5 μM Smp24 for 12 h
Experimental: MTT assay was performed to analyze cellular viability as previously reported by us. […] To determine which signal pathway is primarily responsible for the cytotoxic effects of Smp24 on A549 cells, various inhibitors including 40 μM Necrostatin-1, 40 μM Z-DEVD-FMK, and 1 μM cyclosporine A were pre-incubated with A549 cells for 30 min before 5 μM Smp24 was incubated with the cells for 12 h. After incubation, 10 µL MTT (5 mg/mL) was added before incubation for 4 h at 37 °C in the dark. Subsequently, the cell medium was discarded, and 200 µL DMSO was applied into each well before the absorbance value at 490 nm was determined via the microplate reader (Tecan Company, Männedorf, Switzerland). Cell proliferation was further detected by the BeyoClick™ EdU cell proliferation kit with Alexa Fluor 488 (Beyotime Institute of Biotechnology, Shanghai, China) according to the protocol of manufacturer. […] Then, the cells were incubated with EdU for 2 h and stained with Alexa Fluor 488 for 30 min in the dark before cell fluorescence intensity was measured by flow cytometry (Becton Dickinson Company, Franklin Lakes, NJ, USA). […]
The LDH release assay was carried out with a commercial kit (Beyotime Institute of Biotechnology, Shanghai, China) following the manufacturer’s manual. […] Thereafter, a microplate reader (Tecan Company, Männedorf, Switzerland) was used to measure the absorbance value at 490 nm. […]

Cyclosporine A
Inhibition of Smp24-induced cytotoxicity and necrosis of A549: cannot inhibit
